The entries are a selection whose mix differs from that of the whole data set. Activity calls are given as the source filed them. No stated cut-off is given here; in the data, active means inhibition above about 60%; inactive means the rest.

Chains of the proteins cited; added tags and fusions are not shown.
UniProt Q8TCT1, whole entry: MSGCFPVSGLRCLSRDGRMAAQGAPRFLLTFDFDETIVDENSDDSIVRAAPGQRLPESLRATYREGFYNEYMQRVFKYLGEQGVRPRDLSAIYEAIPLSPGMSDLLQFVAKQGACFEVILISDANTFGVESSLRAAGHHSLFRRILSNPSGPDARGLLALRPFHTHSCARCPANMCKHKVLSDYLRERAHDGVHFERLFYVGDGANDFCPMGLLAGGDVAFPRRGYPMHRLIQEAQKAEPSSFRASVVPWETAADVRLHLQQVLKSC

This test addresses Phosphoethanolamine/phosphocholine phosphatase (Homo sapiens) (UniProt Q8TCT1). Kind of test: PubChem AID 1565. The settings on record: recombinant PHOSPHO1, absorbance phosphatase assay; at 13.3 µM; hits give high values.
Turning to `CC(C)(C)OC(=O)N1CCC(N(C(=O)c2ccccc2)c2ccc(F)cc2)CC1`, the inhibition was inactive: 2.8%.

Take `COc1ccc(C(=O)NCC2(N3CCCCC3)CCCCC2)c(OC)c1OC`: the inhibition is inactive: 34.2%.

In the case of `O=C(NCC1(N2CCCCC2)CCCCC1)c1ccc(=O)[nH]c1`, the inhibition was active: 62.4%.

In the case of `O=C(OC1CN2CCC1CC2)C1c2ccccc2Oc2ccccc21` (stereo unspecified), the inhibition is inactive: 1%.

As for `N#CC1(Nc2ccccc2)CCN(Cc2ccccc2)CC1`, the inhibition was inactive: -14%.

With `CCOC(=O)N1CCC(Nc2ccc(OC)cc2)CC1`, the inhibition was inactive: -19.1%.

As for `Cc1cc(C)cc(N(C(=O)c2ccccc2)C2CCN(C(=O)OC(C)(C)C)CC2)c1`, the inhibition was inactive: 41.9%.

On to `O=C(NCC1(N2CCOCC2)CCCCC1)c1cc2ccccc2o1`, for which the inhibition was inactive: -42.5%.

As to `COc1cc(OC)c(C(=O)NCC2(N(C)C)CCCCC2)cc1OC`, the inhibition is inactive: 41.5%.

As for `CC(C)c1ccc(NC2CCN(C(=O)OC(C)(C)C)CC2)cc1`, the inhibition is inactive: 23.6%.

For `COc1ccc(CN(CCCl)CCCl)cc1Cl`, the inhibition was inactive: 36.6%.

`CN(C)c1cccc(C(=O)NCC2(N3CCCCC3)CCCCC2)c1`: the inhibition is inactive: 28.5%.

On to `CCCOc1ccc(C(=O)NCC2(N(C)C)CCCCC2)cc1OC`, for which the inhibition was inactive: 33%.

Regarding `N#CC1(Nc2ccccc2)CCN(CCc2ccccc2)CC1`, the inhibition is inactive: 13.7%.

For `O=C(NCC1(N2CCCCC2)CCCCC1)c1cccc([N+](=O)[O-])c1`, the inhibition is inactive: -61.5%.

Consider `O=C(NCC1(N2CCCCC2)CCCCC1)c1ccc(OC(F)F)cc1`, for which the inhibition is inactive: 23.9%.

Regarding `COc1cc(C(=O)NCC2(N3CCCCC3)CCCCC2)ccc1OC(F)F`, the inhibition was inactive: 2.2%.

Regarding `O=C(NCC1(N2CCOCC2)CCCCC1)c1cc(=O)[nH]c2ccccc12`, the inhibition is inactive: -9.3%.

In the case of `CN1CCN(CCOC(=O)C(O)(c2ccccc2)c2ccccc2)CC1`, the inhibition was inactive: -0.5%.

`COc1ccc(NC2CCN(C(=O)OC(C)(C)C)CC2)cc1`: the inhibition was inactive: -74.1%.

With `O=C(NCC1(N2CCCCC2)CCCCC1)c1cccc(C(F)(F)F)c1`, the inhibition is inactive: 43.3%.

In general, inhibition refers to the drop in the measured response relative to a control, in per cent.

The values are drawn from PubChem BioAssay AID1565 (Sanford-Burnham Center for Chemical Genomics, 2009).
